This is a selection; strong and weak results do not stand in their true shares. The source made the active and inactive calls.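 Rule for the calls: active = viability at or under a set limit, the compound median less 4 SD (cut at about 6% in these data); inactive = the rest.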
Assay: primary screen for growth suppressors in beta-catenin knockout HCT116 cells (colon tumor, human) (AID 818);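 note: 0% = Hyamine 1622 control at 20 µM and 100% = untreated cell control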
Conditions: CellTiter-Glo, 60 h, at 10 µM, hits give low values

| SMILES | viability |
| --- | --- |
| CN(C)CCOC(=O)C(O)(c1ccccc1)C1CCCC1 (centres undefined) | inactive: 101% |
| COc1ccc(OP(C)(=O)Nc2ccccn2)cc1 (centres undefined) | inactive: 108% |
| Cc1c(NP(C)(=O)Oc2ccc(C(C)C)cc2)c(=O)n(-c2ccccc2)n1C (centres undefined) | inactive: 101% |
| CCc1ccc(OP(C)(=O)O)cc1 | inactive: 82.9% |
| COc1ccccc1OP(C)(=O)Nc1ccc(C)cc1C (centres undefined) | inactive: 96% |
| CP(=O)(Nc1ccccn1)Oc1ccccc1 (centres undefined) | inactive: 95.4% |
| COc1ccc(OP(C)(=O)Nc2ccccc2Br)cc1 (centres undefined) | inactive: 101% |
| COc1ccccc1OP(C)(=O)Nc1ccc(C)c(C)c1 (centres undefined) | inactive: 103% |
| Cc1nc2ccc3ccccc3c2o1.O=[N+]([O-])c1cc([N+](=O)[O-])c(O)c([N+](=O)[O-])c1 | inactive: 88.1% |
| CP(=O)(OC12CC3CC(CC(C3)C1)C2)OC12CC3CC(CC(C3)C1)C2 | inactive: 78.8% |
| CCOC(=O)c1ccc(NP(C)(=O)Oc2ccc(Cl)cc2)cc1 (centres undefined) | inactive: 97.8% |
| COc1ccc(OP(C)(=O)Nc2ccc(Br)cc2)cc1 (centres undefined) | inactive: 91% |
| CCN(CC)CC(O)COC(=O)C(O)(c1ccccc1)C1CCCCC1 (centres undefined) | inactive: 102% |
| CP(=O)(Oc1ccccc1)N1CCOC1=O (centres undefined) | inactive: 96.7% |
| CP(=O)(Nc1ccc(Cl)cc1)Oc1ccc(F)cc1 (centres undefined) | inactive: 76.9% |
| CC(C)(C)c1ccc(OP(C)(=O)O)cc1 | inactive: 91% |
| CCOP(C)(=S)SCC(=O)NC(C)(CC)C(=O)O (centres undefined) | inactive: 78.4% |
| CP(=O)(Nc1ccc2c(c1)OCCO2)Oc1ccccc1 (centres undefined) | inactive: 94.5% |
| Cc1ccccc1NP(C)(=O)Nc1ccccc1C | inactive: 87.8% |
| COc1ccc(OP(C)(=O)Nc2cccc(Br)c2)cc1 (centres undefined) | inactive: 89.3% |
| CN(C)CCOC(=O)C(O)(c1ccccc1)C1CCCCC1 (centres undefined) | inactive: 108% |
| CCOC(=O)c1ccc(NP(C)(=O)Oc2ccc(F)cc2)cc1 (centres undefined) | inactive: 84.4% |
| CCN(CC)CCCOC(=O)C(O)(c1ccccc1)C1CCCCC1 (centres undefined) | inactive: 88.6% |
| CP(=O)(Nc1ccccc1)Oc1ccc(F)cc1 (centres undefined) | inactive: 109% |
| CC(C)c1ccc(OP(C)(=O)Nc2ccc(SC(F)(F)F)cc2)cc1 (centres undefined) | inactive: 70.3% |

| SMILES | viability |
| --- | --- |
| CP(=O)(Nc1ccccc1F)Oc1ccccc1 (centres undefined) | inactive: 95.1% |
| O=C(OCCN1CCN(CCOCc2ccccc2)CC1)C(O)(c1ccccc1)c1ccccc1 | inactive: 84.9% |
| Cc1cc(C)cc(OP(C)(=O)Nc2ccc(C)cc2C)c1 (centres undefined) | inactive: 94.3% |
| CCOC(=O)c1ccc(NP(C)(=O)Oc2cc(C)cc(C)c2)cc1 (centres undefined) | inactive: 62.8% |
| Cc1cc(C)cc(OP(C)(=O)Nc2ccccn2)c1 (centres undefined) | inactive: 87.7% |
| Cc1ccc(C)c(NP(C)(=O)Oc2ccccc2)c1 (centres undefined) | inactive: 94.1% |
| CC1=NCCc2c1[nH]c1ccccc21.O=[N+]([O-])c1cc([N+](=O)[O-])c(O)c([N+](=O)[O-])c1 | inactive: 94.8% |
| CN1CCCCC1COC(=O)C1(O)c2ccccc2CCc2ccccc21 (centres undefined) | inactive: 75.3% |
| COc1ccccc1OP(C)(=O)Nc1c(C)cccc1C (centres undefined) | inactive: 106% |
| CP(=O)(Nc1ccc(SC(F)(F)F)cc1)Oc1ccccc1 (centres undefined) | inactive: 71.6% |
| Cc1nc2ccc3ccccc3c2s1.O=[N+]([O-])c1cc([N+](=O)[O-])c(O)c([N+](=O)[O-])c1 | inactive: 101% |
| Cc1cccc(C)c1OP(C)(=O)Nc1ccc(SC(F)(F)F)cc1 (centres undefined) | inactive: 31.9% |
| Cc1cc(C)cc(OP(C)(=O)Nc2ccc(SC(F)(F)F)cc2)c1 (centres undefined) | inactive: 87.9% |
| CP(=O)(NC(=O)Nc1ccccc1)Oc1ccccc1 (centres undefined) | inactive: 97% |
| CCOP(C)(=S)SCC(=O)NC(C)C(=O)O (centres undefined) | inactive: 97.5% |
| CCOC(=O)c1ccc(NP(C)(=O)Oc2ccc(OC)cc2)cc1 (centres undefined) | inactive: 94.8% |
| CP(=O)(Nc1ccccn1)Oc1ccc(Cl)cc1 (centres undefined) | inactive: 102% |
| CP(=S)(Nn1cnnc1)Oc1ccccc1 (centres undefined) | inactive: 103% |
| CP(=O)(Nc1ccccc1Br)Oc1ccccc1 (centres undefined) | inactive: 90.7% |
| CC(C)(C)c1ccc(OP(C)(=O)Nc2ccc(SC(F)(F)F)cc2)cc1 (centres undefined) | inactive: 81.9% |
| CCOC(=O)c1ccc(NP(C)(=O)Oc2ccccc2)cc1 (centres undefined) | inactive: 86.1% |
| Cc1ccc(NP(C)(=O)Oc2ccccc2)c(C)c1 (centres undefined) | inactive: 93.9% |
| COc1ccccc1OP(C)(=O)Nc1ccc(C)cc1 (centres undefined) | inactive: 98% |
| COc1ccc(OP(C)(=O)Nc2cccc(F)c2)cc1 (centres undefined) | inactive: 97.5% |

— PubChem BioAssay AID818 (SRMLSC, 2007)
